{"source": "PubChem BioAssay AID848", "about": "(Columbia University Molecular Screening Center, 2007)", "note": "This is a selection; strong and weak results do not stand in their true shares. The source made the active and inactive calls.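 Rule for the calls: active = cell count reduction exceeding the screen mean by over 5 SD, scaled to untreated wells per plate (cut at about 78% in these data); inactive = the rest.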"}
{"test": "cytotoxicity in TNFa-stimulated HUVEC, primary screen, cytotoxicity control for VCAM1 expression modulator project, imaging, Hoechst nuclei count (AID 848);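 note: cells counted after 24 h of TNF alpha exposure following the 1 h pretreatment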", "settings": "HUVEC TNFalpha-stimulated, at 2 µM, hits give high values"}
{"smiles": "O=P1(Nc2ccccn2)COc2ccccc2OC1", "cell count reduction": "inactive: 18.5%"}
{"smiles": "Clc1n[nH]nc1-c1nn[nH][15n]1", "cell count reduction": "inactive: -29.9%"}
{"smiles": "Cc1nn(-c2ccccc2)c2c1P(=O)(N1CCOCC1)N(C)C(c1ccccc1)=N2", "note": "(configuration not stated)", "cell count reduction": "inactive: -18.1%"}
{"smiles": "O=P1(Nc2ncccn2)COc2ccccc2OC1", "cell count reduction": "inactive: -33.3%"}
{"smiles": "Cc1ccc(OCC(=O)OC2CN3CCC2CC3)cc1", "note": "(configuration not stated)", "cell count reduction": "inactive: -13.7%"}
{"smiles": "O=P1(Nc2ccc(Br)cn2)COc2ccccc2OC1", "cell count reduction": "inactive: -20.2%"}
{"smiles": "CCOP1(=S)c2c(C)nn(CCC#N)c2N=C(c2ccccc2F)N1C", "note": "(configuration not stated)", "cell count reduction": "inactive: -11.4%"}
{"smiles": "O=[N+]([O-])c1ccc2c(c1)nnn2O", "cell count reduction": "inactive: -25.4%"}
{"smiles": "CCOP1(=S)c2c(C)nn(CCC#N)c2N=C(c2ccc(F)cc2)N1C", "note": "(configuration not stated)", "cell count reduction": "inactive: 1.4%"}
{"smiles": "Cc1cccc(OCC(=O)OC2CN3CCC2CC3)c1", "note": "(configuration not stated)", "cell count reduction": "inactive: 12.1%"}
{"smiles": "O=C(OC1CN2CCC1CC2)C12CC3CC(CC(C3)C1)C2", "note": "(configuration not stated)", "cell count reduction": "inactive: -6.8%"}
{"smiles": "ClCCSc1nnc(-c2cccnc2)o1", "cell count reduction": "inactive: 2.9%"}
{"smiles": "CCN(CC)C(=S)SC(NC=O)C(Cl)(Cl)Cl", "note": "(configuration not stated)", "cell count reduction": "inactive: -3.8%"}
{"smiles": "COP1(=S)c2c(C)nn(CCC#N)c2N=C(c2ccc(F)cc2)N1C", "note": "(configuration not stated)", "cell count reduction": "inactive: 0.4%"}
{"smiles": "O=C(COc1ccccc1)OC1CN2CCC1CC2", "note": "(configuration not stated)", "cell count reduction": "inactive: 62.9%"}
{"smiles": "CCC(C)N(CC(C)C)C(=S)SC(NC(C)=O)C(Cl)(Cl)Cl", "note": "(configuration not stated)", "cell count reduction": "inactive: -15.1%"}
{"smiles": "O=[N+]([O-])c1cccc2n[nH]nc12", "cell count reduction": "inactive: -8.5%"}
{"smiles": "CC(=O)N1C2C3N(C(C)=O)C1C1N(C(C)=O)C(C(N1C(C)=O)N3C(C)=O)N2C(C)=O", "cell count reduction": "inactive: -7.5%"}
{"smiles": "CCc1nc2c(n1)c1c(non1O)c1c2no[n+]1[O-]", "cell count reduction": "inactive: -21%"}
{"smiles": "CC1CCN(C(=O)Oc2c(Cl)cc(Cl)c3cccnc23)CC1", "cell count reduction": "inactive: 3.1%"}
{"smiles": "CCOP(=O)(Nc1ccccc1)OCC", "cell count reduction": "inactive: -23.4%"}
{"smiles": "CN1CCCC(OC(=O)C(c2ccccc2)c2ccccc2)C1", "note": "(configuration not stated)", "cell count reduction": "inactive: -14.3%"}
{"smiles": "CC(C)CC(=O)NC(Sc1ccc(Cl)cc1)C(Cl)(Cl)Cl", "note": "(configuration not stated)", "cell count reduction": "inactive: -10%"}
{"smiles": "Oc1ccccc1CNc1ccccn1", "cell count reduction": "inactive: -12.5%"}
{"smiles": "Cc1c2non([O-])c-2c(C)[n+](=O)[n+]1[O-]", "cell count reduction": "inactive: -18.9%"}
{"smiles": "O=P1(Nc2nc3ccc(Cl)cc3s2)COc2ccccc2O1", "note": "(configuration not stated)", "cell count reduction": "inactive: 23.7%"}
{"smiles": "CCOC(=O)NC(Sc1ccccc1)C(Cl)(Cl)Cl", "note": "(configuration not stated)", "cell count reduction": "inactive: -7.5%"}
{"smiles": "COC(=O)c1cc2c(s1)N=C(c1ccccc1)N(C)P2(=O)N1CCOCC1", "note": "(configuration not stated)", "cell count reduction": "inactive: -35.2%"}
{"smiles": "CCC(=O)N1C2C3N(C(=O)CC)C1C1N(C(=O)CC)C(C(N1C(=O)CC)N3C(=O)CC)N2C(=O)CC", "cell count reduction": "inactive: -28%"}
{"smiles": "O=C(OC1CN2CCC1CC2)c1cccc(Cl)c1", "note": "(configuration not stated)", "cell count reduction": "inactive: -8.4%"}
{"smiles": "O=P(Nc1nccs1)(c1ccccc1)c1ccccc1", "cell count reduction": "inactive: -76.2%"}
{"smiles": "c1nnnn1CCn1cnnn1", "cell count reduction": "inactive: -26.7%"}
